Measured values published in patent US8124794B2, “Method for the asymmetric synthesis of beta-lactone compounds” (Sanford-Burnham Medical Research Institute, priority 2006, dated 2012).

Protein sequences, listed by entry. Tags and fused reporters are not part of them. Residues count along the entry.
UniProt P49327, 2207-2511 limits assumed: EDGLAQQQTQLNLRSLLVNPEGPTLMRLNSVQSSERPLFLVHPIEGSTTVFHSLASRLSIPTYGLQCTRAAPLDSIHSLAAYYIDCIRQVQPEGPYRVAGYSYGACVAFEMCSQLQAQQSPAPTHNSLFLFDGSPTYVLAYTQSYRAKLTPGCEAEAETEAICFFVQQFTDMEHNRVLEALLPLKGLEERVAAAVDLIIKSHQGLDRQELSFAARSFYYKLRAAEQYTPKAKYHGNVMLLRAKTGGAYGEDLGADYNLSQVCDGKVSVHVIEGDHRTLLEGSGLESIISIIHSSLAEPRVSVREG

Target: recombinant thioesterase domain of fatty acid synthase (FAS TE) (Homo sapiens, UniProt P49327)
Assay: Fluorogenic assay (4-MUH substrate) for inhibition of recombinant FAS thioesterase domain
Format: biochemical
Settings: read-out: apparent Ki, 30 min pre-incubation at 37 deg.C

O=C1O[C@H](CCC2CCCCC2)[C@H]1CC1CCCCC1
Ki: 6.3 µM

O=C1O[C@H](CCC2CCCC2)[C@H]1CC1CCCC1
Ki: 6.7 µM
